# Rango complex inh = Rango-importin beta binding inhibition | Rango CFP/YFP FRET sensor + importin beta, 45 min | actives 0.031% (n = 340,000) | Potency, µM (doses to about 92.2 µM), inactives show top-dose inhibition of complex formation | AID 540263 | Q14974; calls by dose curve;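 note: 0% = DMSO wells and 100% = buffer wells lacking importin beta; nearly all actives have a fitted effect of over 15% in size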
#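 FRET biosensor Rango (snurportin 1 IBB between N-terminal EYFP and C-terminal Cerulean), 50 nM in PBS/1 mM DTT/0.02% Tween-20/0.1% BSA, preincubated 5 min RT with compound; 0.125 microM importin beta added, 45 min RT, CFP/YFP FRET ratio read.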
# ClpP mod = qHTS Assay for Activators of ClpP | ATP-dependent Clp protease proteolytic subunit (Bacillus subtilis (strain 168)), P80244 | purified B. subtilis ClpP, FRET peptide cleavage, 20 min | Potency, µM (doses to about 57.5 µM), inactives show at the highest dose activity change, negative = active | actives 1.9% (n = 340,000) | AID 651965, 2013; active = well fitted falling curve with a large enough effect; inconclusive = small, poorly fitted or top-dose-only effect; inactive = no such curve, though single readings can be large or run the other way; note: the source files actives as falling curves though it sought activators and does not explain the sign; nearly all actives have a fitted effect of over 65% in size
#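 Buffer: 100 mM Tris/HCl pH8, 100 mM KCl, 0.05% low protease BSA, 2.5% glycerol, 0.01% Tween-20. ClpP 10 microg/mL final; 20 min RT; delta FRET normalized to ADEP and DMSO controls.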
# PTAP TSG101 blk = blocks PTAP/TSG101 interaction to inhibit HIV-1 budding | Fluorescence polarization, FITC-PTAP peptide / Tsg101 binding | Potency, µM (top dose mostly 115 µM), inactives show at the top dose activity change, negative = inhibition, most hits filed as inhibitors | 340,000 tested, under 10 active | AID 493005; active = well fitted inhibition curve with a large enough effect in the main read-out, with a control signal flat, not every such curve was filed as active; inconclusive = small, poorly fitted or top-dose-only effect, or effect the other way, or a change in a side signal; inactive = no such curve, though single readings can be large or run the other way; note: % of control where 0% means no effect
#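 Steps: Tsg101 binding domain dispensed (10 uM final), compounds pinned in DMSO, FITC-labeled PTAP-motif peptide added (50 nM final); after 20 min binding at room temperature, polarization measured.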
# ALOX12 inh = blocks human arachidonate 12S-lipoxygenase | purified 12hLO, xylenol orange hydroperoxide absorbance | Potency, µM (doses to about 108 µM), without a hit: at the highest dose activity change, negative = inhibition, hits mostly inhibitors | actives 1.1% (n = 580,000) | AID 1671190; note: % is set by controls: 0 for no effect and ±100 for the full control effect
#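 Purified human 12hLO at 150 nM in 25 mM Hepes, 0.01% Triton X-100, pH 7.0, preincubated 15 min at room temperature with compound. Reaction started with 40 uM arachidonic acid, 30 min at room temperature. Hydroperoxide measured by Fe-xylenol orange, 573/405 nm absorbance ratio.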
# Rango dissoc inh = inhibitors of RanGTP-induced Rango-importin beta complex dissociation. O95149+P62826. AID 540253. Potency, µM (titrated, usually from 46.1 µM), inactives show at the top dose activity change, negative = inhibition. Biochemical FRET Rango-importin beta, RanGTP-induced dissociation. actives 0.071% (n = 340,000); calls by dose curve; note: % of control where 0% means no effect; nearly all actives have a fitted effect of over 45% in size
#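 FRET read at 45 min, room temperature: inhibitors block the CFP/YFP signal rise when RanGTP (0.6 uM Ran, 2 mM GTP, 0.2 uM RCC1) frees Rango (0.1 uM) from importin beta (0.25 uM). Pre-read after 5 min compound exposure flags interference.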
# TDP1 inh = inhibitors of human tyrosyl-DNA phosphodiesterase TDP1. recombinant TDP1, AlphaScreen DNA substrate cleavage. Potency, µM (titrated, usually from 130 µM), without a hit: top-dose activity change, negative = inhibition, most hits filed as inhibitors. actives 0.28% (n = 350,000). AID 485290; note: % is set by controls: 0 for no effect and ±100 for the full control effect; nearly all actives have a fitted effect of over 40% in size
#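 AlphaScreen read-out: signal falls as enzyme removes the 3' tyrosine-FITC from a 5'-biotinylated DNA oligo (15 nM, 5 min, RT). Enzyme was E. coli-made recombinant Tdp1 at 1 nM, exposed to compound for 15 min beforehand; beads 10 ug/ml, 10 min.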
# * marks the source's active call; other numbers are inactive results; ? = inconclusive; · = no result given; [ ] = another dose, or the depositor's remark. Only some compounds are listed: those with a hit (about 2.4% of all), similar ones and a draw of the others. Unless noted, calls come from the whole dose curve; as a rule, active = well fitted curve in the direction sought with a large enough effect; inconclusive = small, poorly fitted or top-dose-only effect, or another doubt; inactive = no such curve, though single readings can be large; an effect the other way counts as inactive or inconclusive. Potency is the fitted concentration of half-maximal effect.
item | structure | Rango dissoc inh | TDP1 inh | ALOX12 inh
1 | COc1ccc(-c2cc(-c3ccccc3)nc(-c3ccc4c(c3)NC(=O)CO4)c2)cc1 | 6% | 6% | -9%
2 | COc1cc2c(cc1OC)C(c1cc3cc4c(cc3[nH]c1=O)OCO4)N(C(=O)C1CC1)CC2 (stereo unspecified) | 5% | 0% | 1%
3 | CCn1nccc1C(=O)N1CCC(CCOc2ccc(F)cc2)C1 (stereo unspecified) | · | · | 18%
4 | Cc1ccc(F)cc1NC(=O)c1cc(-c2ccc[nH]2)n[nH]1 | · | · | 16µM*
5 | Cc1cc(NC(=O)c2cc(-c3ccc[nH]3)n[nH]2)ccc1F | · | · | -16%
6 | O=C(Nc1cccc(OC(F)(F)F)c1)c1cc(-c2ccc[nH]2)n[nH]1 | · | · | 14µM*
7 | O=c1c2sc(-c3ccccc3)cc2nc2n1CCC2 | -10% | 10%[56.1 µM] | 0%
8 | COC(=O)c1ccc(OCc2ccc(Cl)cc2)cc1 | · | · | 1%

item | Rango complex inh | ClpP mod | PTAP TSG101 blk
1 | -1% | 25µM* | -1%
2 | -2% | 25µM* | -7%
3 | · | · | ·
4 | · | · | ·
5 | · | · | ·
6 | · | · | ·
7 | -3% | 22µM* | -5%
8 | · | · | ·

# (further entries)
item | structure | Rango dissoc inh | TDP1 inh | ALOX12 inh
9 | CN(C)C(=O)c1ccc(NC(=O)CC#N)cc1 | · | · | 7%
10 | O=C1c2ccccc2-c2onc3c(N4CCN(CCO)CC4)cc(N4CCN(C(=O)c5ccco5)CC4)c1c23 | 13% | 15% | 17%
11 | COc1ccc(NC(=O)C2=NO[C@@H]3CN(CCc4ccccc4)C[C@H]23)cn1 | · | · | 14%[176 µM]
12 | O=C(CCc1ccco1)NC1CCCC1 | · | · | 1%
13 | CC(NC(=O)CSc1nnc2n1CCCCC2)c1ccc2c(c1)CCCC2 (stereo unspecified) | · | · | -19%
14 | COc1cc(-c2c(C#N)c(N)nc3c2c(C)nn3-c2ccc(C)c(C)c2)cc(OC)c1OC | -13% | 3% | -10%
15 | Cc1nn(-c2ccccc2)c2nc(N)c(C#N)c(-c3ccc(O)c(O)c3)c12 | -11% | · | 32µM*
16 | COC(=O)N/N=C(\C)c1ccc(Br)cc1 | 11% | 3% | -7%

item | Rango complex inh | ClpP mod | PTAP TSG101 blk
9 | · | · | ·
10 | 37µM* | · | ?
11 | · | · | ·
12 | · | · | ·
13 | · | · | ·
14 | ? | 25µM* | 2%
15 | -1% | -2% | 0%
16 | -5% | -5% | -2%

# Next structures:
item | structure | Rango dissoc inh | TDP1 inh | ALOX12 inh
17 | CSC(=S)N/N=C(\C)c1ccc(Br)cc1 | 17% | 2% | 45µM*
18 | Cc1ccc(CNC(=O)Cc2ccc(-n3cccc3)cc2)cc1 | -4% | 3% | 0%
19 | Cc1ccc(CNC(=O)c2ccc(-n3cccc3)cc2)cc1 | -28% | 13µM* | ?
20 | O=C1C=C(c2c(O)ccc3ccccc23)c2ccccc2C1=O | 16% | · | 45µM*
21 | Cc1ccccc1OCCOC(=O)c1ccc2c(c1)NC(=O)CS2 | · | · | 18%
22 | C=C(C)COc1ccc2c(=O)c(Oc3ccccc3Br)c(C)oc2c1 | · | · | -58%
23 | Cc1oc2cc(OCC(=O)O)ccc2c(=O)c1Oc1ccccc1Br | · | · | 32µM*
24 | COC(=O)C1=C(C)N=C2SC=C(CC(=O)NCC3CCCO3)N2C1c1ccc(OC)cc1OC (stereo unspecified) | · | · | 26%

item | Rango complex inh | ClpP mod | PTAP TSG101 blk
17 | -1% | · | 0%
18 | 6% | 1% | -4%
19 | ? | · | -3%
20 | 0% | 3% | 0%
21 | · | · | ·
22 | · | · | ·
23 | · | · | ·
24 | · | · | ·

# Next section.
item | structure | Rango dissoc inh | TDP1 inh | ALOX12 inh
25 | Cn1cccc1/C=N/N1CCN(Cc2cccc3ccccc23)CC1 | -10% | 13% | 18µM*
26 | COc1cc2cc(C(c3nnnn3C3CCCC3)N3CCCCCC3)c(=O)[nH]c2cc1OC (stereo unspecified) | ? | 3% | ?
27 | CCOc1ccc2[nH]c(=O)c(C(c3nnnn3C3CCCCC3)N3CCN(CC)CC3)cc2c1 (stereo unspecified) | ? | 6% | -26%
28 | CCOc1ccc2[nH]c(=O)c(C(c3nnnn3C3CCCCC3)N3CCN(C)CC3)cc2c1 (stereo unspecified) | 0% | 4% | 0%
29 | COc1ccc2[nH]c(=O)c(C(c3nnnn3C3CCCC3)N(C)C3CCCCC3)cc2c1 (stereo unspecified) | 4% | 4% | -8%
30 | COc1ccc2[nH]c(=O)c(C(c3nnnn3C3CCCC3)N3CCN(Cc4ccc5c(c4)OCO5)CC3)cc2c1 (stereo unspecified) | -10% | 3% | -5%
31 | CCN1CCN(c2nc3c(c(=O)n(C)c(=O)n3C)n2Cc2ccc(Br)cc2)CC1 | · | · | 2%
32 | O=C(COC(=O)c1cccs1)Nc1nc(-c2ccccc2)cs1 | -4% | 3% | -22%

item | Rango complex inh | ClpP mod | PTAP TSG101 blk
25 | 1% | -10% | 0%
26 | ? | ? | -7%
27 | ? | 25µM* | -5%
28 | ? | 25µM* | -8%
29 | ? | ? | -6%
30 | ? | 28µM* | -3%
31 | · | · | ·
32 | 1% | 32µM* | -9%

# Next part
item | structure | Rango dissoc inh | TDP1 inh | ALOX12 inh
33 | C/C(=N\Nc1nc(-c2ccccc2)cs1)c1cccs1 | -1% | 11% | 45µM*
34 | O=C(COC(=O)/C=C/c1cccs1)Nc1nc(-c2ccccc2)cs1 | -1% | 1% | -8%
35 | C/C(=N\Nc1nc2ccccc2s1)c1cccs1 | -8% | -2% | ?
36 | Cn1c(=O)c2c(nc(NCc3ccc(S(N)(=O)=O)cc3)n2Cc2ccc(F)cc2)n(C)c1=O | · | · | 4%
37 | Cc1ccc(COC(=O)Cc2c[nH]c3ccccc23)cc1 | · | · | -24%
38 | O=C1Nc2ccccc2CC12CCN([S+](=O)([O-])c1ccccc1)C2 (stereo unspecified) | · | · | 26%
39 | Cc1cc(N/N=C/c2cccc(Cl)c2)nc(-n2nc(C)cc2C)n1 | -2% | · | 204%
40 | Cc1nc(C#N)c(N/N=C/c2cccc(Cl)c2)o1 | -20% | 8% | 40µM*

item | Rango complex inh | ClpP mod | PTAP TSG101 blk
33 | 2% | -2% | -8%
34 | 4% | · | 1%
35 | 3% | · | -6%
36 | · | · | ·
37 | · | · | ·
38 | · | · | ·
39 | -1% | -1% | 0%
40 | 0% | 2% | -2%

# Part of the list above, field by field:
36: Cn1c(=O)c2c(nc(NCc3ccc(S(N)(=O)=O)cc3)n2Cc2ccc(F)cc2)n(C)c1=O
- Rango dissoc inh: ·
- TDP1 inh: ·
- ALOX12 inh: 4%
- Rango complex inh: ·
- ClpP mod: ·
- PTAP TSG101 blk: ·
34: O=C(COC(=O)/C=C/c1cccs1)Nc1nc(-c2ccccc2)cs1
- Rango dissoc inh: -1%
- TDP1 inh: 1%
- ALOX12 inh: -8%
- Rango complex inh: 4%
- ClpP mod: ·
- PTAP TSG101 blk: 1%
39: Cc1cc(N/N=C/c2cccc(Cl)c2)nc(-n2nc(C)cc2C)n1
- Rango dissoc inh: -2%
- TDP1 inh: ·
- ALOX12 inh: 204%
- Rango complex inh: -1%
- ClpP mod: -1%
- PTAP TSG101 blk: 0%
40: Cc1nc(C#N)c(N/N=C/c2cccc(Cl)c2)o1
- Rango dissoc inh: -20%
- TDP1 inh: 8%
- ALOX12 inh: 40µM*
- Rango complex inh: 0%
- ClpP mod: 2%
- PTAP TSG101 blk: -2%

# The list continues:
item | structure | Rango dissoc inh | TDP1 inh | ALOX12 inh
41 | CN(CCc1ccccn1)C(=O)Nc1ccc(C(C)(C)C)cc1 | -15% | 8% | 157%
42 | O=C(c1ccc(F)c(F)c1)N1CCSc2ccccc21 | · | · | 24%
43 | COCCn1ncc(N2CCC(C(=O)NCc3cccc(C(F)(F)F)c3)C2)cc1=O (stereo unspecified) | · | · | 32%
44 | Cc1ccc(S(=O)(=O)N/N=C/c2ccc(O)c(O)c2)cc1[N+](=O)[O-] | 18% | -8% | 50µM*
45 | Cc1ccc(S(=O)(=O)N/N=C/c2ccccc2O)cc1[N+](=O)[O-] | 10% | 7% | 6%
46 | CCNC(=O)c1c(C)oc2c1CN(C(=O)CC)CC2 | · | · | 8%
47 | NS(=O)(=O)c1ccc(NS(=O)(=O)c2ccc(C3CNC(=O)C3)cc2)cc1 (stereo unspecified) | 6% | 13% | 6%

item | Rango complex inh | ClpP mod | PTAP TSG101 blk
41 | 3% | 28µM* | 3%
42 | · | · | ·
43 | · | · | ·
44 | 3% | 0% | -1%
45 | -4% | 0% | 0%
46 | · | · | ·
47 | 3% | 28µM* | -4%
